In publication PMC12022901 (Frontiers in Pharmacology, 2025):
Where two headings read alike, the source gives them in different places.

Settings: edoxaban 50 µg vs 60 mg

CN1CCc2nc(C(=O)N[C@@H]3C[C@@H](C(=O)N(C)C)CC[C@@H]3NC(=O)C(=O)Nc3ccc(Cl)cn3)sc2C1 [Edoxaban, edoxaban]
dose-normalized AUC∞ GMR, microdose vs therapeutic dose (at baseline): 0.74
dose-normalized AUC∞ GMR, microdose vs therapeutic dose (at carbamazepine steady-state): 0.91
